High-throughput results (PubChem)
Compounds with a hit are over-represented: about 1.8% of the library has one in this group of screens.
SIRT5 inh: sirtuin-5 (human) deacylase inhibition. Q9NXA8. 330,000 tested, 1.1% active. inhibition, % at 15 µM. Purified SirT5, succinyl-peptide AMC, trypsin-coupled fluorescence. AID 652115; in the data active = inhibition above about 15%; inconclusive = no clear call, values can overlap the other calls
UUG fidelity: modulators of start codon recognition fidelity in yeast; AID 602363; activity score, % at 18.7 µM; S. cerevisiae UUG-firefly luciferase reporter, luminescence/redox ratio; actives 0.13% (n = 350,000);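 active = replicate mean at a twofold rise or more, about +100% in these data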;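 note: firefly luciferase made from a UUG start codon reports start codon fidelity; reporter light over untreated wells divided by growth signal over untreated wells; some hits fall short of that in this replicate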
RAD54 branch: blocks human RAD54 Holliday junction branch migration. Q92698. FAM/BHQ fluorescence. inhibition, % at 10.4 µM. 360,000 tested, 0.14% active;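 active = mean normalized replicate activity at least 40 and at least half of replicates scoring 40 or more; inconclusive = only one of the two criteria met; inactive = mean below 40 and under half of replicates reaching 40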;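 also: inhibitors cause a drop in the FAM fluorescence signal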
E-selectin induc: E-selectin induction on HUVECs; 260,000 tested, 0.37% active; activation, % at 7.58 µM; P16581; HUVEC E-selectin immunofluorescence imaging; normalized: neutral wells 0, TNF-alpha wells 100; AID 686992;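 active = mean E-selectin-positive cell signal at least 10% of the positive control, reached in at least 60% of replicates, without over 20% cell loss; inconclusive = no rule given, readout overlaps actives, possibly toxicity-flagged; inactive = the rest, including those meeting only one limit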
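material = human umbilical vein endothelial cells (HUVEC), E-selectin induction | quantity = 3,000 cells/well | medium = EGM-2 growth medium on 0.1% gelatin-coated wells | technique = immunofluorescence imaging | read-out basis = % PE-positive cells | control set = TNF-alpha positive control, DMSO neutral control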
RAD52 inh: blocks human RAD52 DNA annealing; P43351; recombinant RAD52 DNA annealing, FRET fluorescence; inhibition, % at 18.7 µM; 360,000 tested, 0.46% active;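 active = every replicate showing at least 50% inhibition; inconclusive = mean inhibition at least 50% but not in every replicate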
AF4-AF9 inh: blocks AF4 peptide binding to human AF9; P42568; 350,000 tested, 0.47% active; inhibition, % at 10 µM; AlphaScreen, biotin-AF4 peptide binding to FLAG-AF9; AID 651704;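 active = every replicate reaching a set inhibition limit, whatever the replicate mean, cut at about 25% in these data; inconclusive = mean inhibition reaches that limit but some replicates miss it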
AlphaScreen intf: interferes with the AlphaScreen assay signal. shares compounds with AF4-AF9 inh. AlphaScreen interference counter-screen, signal luminescence. 530 tested, 45% active. AC50, µM (doses to about 12 µM). AID 720494; cut-off not given, nearly all actives have AC50 up to about 14 µM
Of the large screens only hits and unclear results are named; the others gave an inactive call (follow-up assays come after a bar, where they were run); ! = a repeat was not active.

CNC(=S)N1N=C(c2ccc(Br)cc2)CC1c1ccc(N(C)C)cc1 (stereo unspecified)	AF4-AF9 inh 27 (no result: UUG fidelity, RAD54 branch, E-selectin induc) | AlphaScreen intf inactive
COCC(=O)N(C)C[C@H]1Oc2ncc(C#Cc3ccc(OC)cc3)cc2C(=O)N([C@H](C)CO)C[C@@H]1C	none
CCOc1ccc(NC(=S)N(CCN2CCOCC2)Cc2ccc3c(c2)CCCN3CC)cc1	AF4-AF9 inh 39 | AlphaScreen intf inactive
CCN1CCCc2cc(CN(CCN3CCOCC3)C(=S)Nc3ccc(OC)cc3)ccc21	none (no result: UUG fidelity, RAD54 branch)
C[C@@H](C(=O)NC1CCN(Cc2ccccc2)CC1)N1C(=O)N2CCc3c([nH]c4ccccc34)[C@@]2(C)C1=O	none (no result: SIRT5 inh, E-selectin induc)
CC(C)C[C@@H](C(=O)NC1CCN(Cc2ccccc2)CC1)N1C(=O)N2CCc3c([nH]c4ccccc34)[C@@]2(C)C1=O	AF4-AF9 inh 37 (no result: E-selectin induc) | AlphaScreen intf inactive
COc1ccc2c3c(n(C)c2c1)[C@@H](CO)N(Cc1ccncc1)CC31CCN(C(=O)C2CCC2)CC1	none (no result: UUG fidelity, RAD54 branch)
Cc1cc(C(=O)c2ccccc2)cc(C)c1O	none (no result: SIRT5 inh, UUG fidelity, RAD54 branch)
CC1=C/C(=C(\c2cc(C)c(O)c(Br)c2)c2ccccc2S(=O)(=O)O)C=C(Br)C1=O	SIRT5 inh 16, AF4-AF9 inh 52 | AlphaScreen intf 8.9µM
COc1cccc(NC2=C(NCCO)C(=O)c3ccccc3C2=O)c1	AF4-AF9 inh 38 (no result: E-selectin induc) | AlphaScreen intf 14µM
COc1ccc(NC2=C(NC(C)=O)C(=O)c3ccccc3C2=O)cc1	E-selectin induc inconclusive
Cc1cccc(Nc2nc(N)c([N+](=O)[O-])c(NCCO)n2)c1	none (no result: UUG fidelity, RAD54 branch, E-selectin induc)
COc1ccc(NC2=C(NCCO)C(=O)c3ccccc3C2=O)cc1	AF4-AF9 inh 56 (no result: UUG fidelity, RAD54 branch) | AlphaScreen intf 14µM
Cc1cccc(NC2=C(NCCO)C(=O)c3ccccc3C2=O)c1	AF4-AF9 inh 49 | AlphaScreen intf inactive
O=C(N/N=C/c1c(O)ccc2ccccc12)c1ccc[n+](CCO)c1	AF4-AF9 inh 82 (no result: UUG fidelity, RAD54 branch) | AlphaScreen intf 0.61µM
Cn1cc(C(=O)N/N=C/c2c(O)ccc3ccccc23)ccc1=O	none (no result: UUG fidelity, RAD54 branch) | AlphaScreen intf inactive
O=C(N/N=C\c1c(O)ccc2ccccc12)c1ccc(O)cc1	none
CO[C@H]1CN(C)C(=O)c2cc(NS(C)(=O)=O)ccc2OC[C@@H](C)N(CC2CCCCC2)C[C@H]1C	none
N#C/C(N=Nc1ccccc1O)=N\Nc1ccccc1O	AF4-AF9 inh 34 (no result: SIRT5 inh) | AlphaScreen intf 8.5µM
Nc1ccc(N)c(C(=O)O)c1	AF4-AF9 inh 27 (no result: SIRT5 inh, E-selectin induc, RAD52 inh) | AlphaScreen intf inactive
Nc1cc(C(F)(F)F)ccc1C(=O)O	none (no result: SIRT5 inh, E-selectin induc)
CN1[C@@H]2c3ccc(C4=CCCCC4)c(=O)n3C[C@H]1[C@H](CO)[C@H]2C(=O)NCCc1ccccc1	none (no result: SIRT5 inh, UUG fidelity, RAD54 branch, RAD52 inh)
CC(C)NC(=O)NCC[C@@H]1CC[C@@H](NS(=O)(=O)c2ccc(-c3ccccc3)cc2)[C@H](CO)O1	none
CN=c1scc(-c2cccs2)n1/N=C/c1ccccc1O	AF4-AF9 inh 31 (no result: UUG fidelity, RAD54 branch, E-selectin induc) | AlphaScreen intf inactive
C[C@@H]1CN([C@H](C)CO)C(=O)Cc2cc(N(C)C)ccc2O[C@H]1CN(C)Cc1ccc(Cl)c(Cl)c1	none (no result: SIRT5 inh, UUG fidelity, RAD54 branch, RAD52 inh, AF4-AF9 inh)
C[C@@H]1CCCCO[C@H](CN(C)Cc2ccc(Cl)c(Cl)c2)[C@@H](C)CN([C@H](C)CO)C(=O)c2cc(N(C)C)ccc2O1	AF4-AF9 inh 50! | AlphaScreen intf inactive
C[C@H](CO)N1C[C@H](C)[C@@H](CN(C)Cc2ccc(Cl)c(Cl)c2)Oc2ccc(N(C)C)cc2CC1=O	AF4-AF9 inh 40 | AlphaScreen intf inactive
C[C@@H]1CN([C@@H](C)CO)C(=O)Cc2cc(N(C)C)ccc2O[C@H]1CN(C)Cc1ccc(Cl)c(Cl)c1	AF4-AF9 inh 48 | AlphaScreen intf 12µM
O=C(c1ccccn1)N1CC2(C1)[C@@H](c1ccccc1)[C@@H](CO)N2Cc1ccc(F)cc1	none (no result: UUG fidelity, RAD54 branch)
COc1ccc2c3c([nH]c2c1)[C@H](CO)N(C(=O)C1CCCCC1)CC31CCN(C)CC1	none (no result: UUG fidelity, RAD54 branch)
Cn1c(SCC(=O)N2c3ccccc3Sc3ccc(Cl)cc32)nnc1-c1ccco1	AF4-AF9 inh inconclusive (no result: E-selectin induc) | AlphaScreen intf inactive
CC(C)(C)C1=CC(=Nc2ccccc2N)C=C(C(C)(C)C)C1=O	AF4-AF9 inh 73 (no result: SIRT5 inh, UUG fidelity, RAD54 branch, E-selectin induc) | AlphaScreen intf 2.7µM
Nc1ccccc1N=Nc1ccccc1N	AF4-AF9 inh inconclusive (no result: SIRT5 inh)
